This assay concerns the target T1, Betaine--homocysteine S-methyltransferase 1 (Homo sapiens, UniProt Q93088).
T1 sequence (Q93088 whole entry): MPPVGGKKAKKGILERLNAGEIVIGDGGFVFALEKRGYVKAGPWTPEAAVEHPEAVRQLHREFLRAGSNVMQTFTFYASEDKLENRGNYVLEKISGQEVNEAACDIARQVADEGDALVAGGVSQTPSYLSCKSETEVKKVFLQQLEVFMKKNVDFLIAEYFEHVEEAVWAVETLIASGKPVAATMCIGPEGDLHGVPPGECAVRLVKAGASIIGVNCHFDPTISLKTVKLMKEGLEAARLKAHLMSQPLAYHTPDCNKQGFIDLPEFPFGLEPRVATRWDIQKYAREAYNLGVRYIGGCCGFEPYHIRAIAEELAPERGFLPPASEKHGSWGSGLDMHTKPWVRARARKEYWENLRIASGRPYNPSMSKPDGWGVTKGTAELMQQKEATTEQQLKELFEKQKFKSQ
Nature of the assay: Inhibition of human BHMT. The gist of the method:
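Recombinant human BHMT (0.2 µM) mixed with inhibitor at ten concentrations, then 1 mM D,L-homocysteine and 2 mM betaine (¹⁴C-methyl labelled, 0.15 µCi) added in 50 mM K-phosphate pH 7.5 with 10 mM β-mercaptoethanol; 30 min at 37°C. Enzyme-free blanks subtracted. IC50 by nonlinear regression; points in duplicate, three independent assays.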

Broadly, the IC50 is the concentration that inhibits the measured activity by half. Low readings indicate greater potency in that assay, high ones weaker potency in that assay.

`NC(CCSCCCCC(=O)O)C(=O)O` (racemic) displayed an IC50 of 87 nM.

The record behind these values is ChEMBL document CHEMBL1138033, “S-alkylated homocysteine derivatives: new inhibitors of human betaine-homocysteine S-methyltransferase” (J Med Chem, 2006).
